Experimental findings from PMC9836055 (Process biochemistry (Barking, London, England), 2022) are described below.

For this experiment, the target named is Lsa45 (Leptospiral surface adhesin of 45 kDa) (Leptospira interrogans, UniProt Q72UC8). The conditions noted are these: PBS, 37 °C, 0.6 mg/mL enzyme.

Structures are written as SMILES.

For the compound `O=C(Cc1cccs1)N[C@@H]1C(=O)N2C(C(=O)O)=C(/C=C/c3ccc([N+](=O)[O-])cc3[N+](=O)[O-])CS[C@H]12` [nitrocefin], the Km (usually the substrate concentration at which the rate is half of its maximum) turned out to be 235 ± 6.4 µM.
